Values after ≈ are worked out from the molar mass of the structure shown.
What was measured:
[1] = Kinetic solubility in […] % DMSO/water at 3.2 uM to 100 uM incubated for 18 hrs by spectrometry; type: physicochemical; details: 2.5 % DMSO/water; read-out: Kinetic_solubility
[2] = system: HepG2; details: human, hepg2, 18 h
[3] = system: HEK293; details: human, hek293, 18 h

## O=C1c2ccccc2C(Cc2c(F)cncc2F)(Cc2c(F)cncc2F)c2ccccc21
[1]
  solubility kinetic at 18 h: 27 µM (≈ 12.1 µg/mL)
[2]
  CC50: 114 µM
[3]
  CC50: 79 µM

Source: ChEMBL document CHEMBL4406884, “An anthrone-based Kv7.2/7.3 channel blocker with improved properties for the investigation of psychiatric and neurodegenerative disorders” (Bioorg Med Chem Lett, 2019)
